Test results published in PubChem BioAssay AID651704 (Broad Institute, 2012).
Only a part is listed here, and it is no random draw. The source made the active and inactive calls.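 How the source made its calls: active means every replicate reaching a set inhibition limit, whatever the replicate mean (cut at about 25% in these data); inconclusive means mean inhibition reaches that limit but some replicates miss it; inactive means the rest.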

Sequences of proteins named here, by UniProt entry; tags and fusion partners are left off.
UniProt P42568, whole entry: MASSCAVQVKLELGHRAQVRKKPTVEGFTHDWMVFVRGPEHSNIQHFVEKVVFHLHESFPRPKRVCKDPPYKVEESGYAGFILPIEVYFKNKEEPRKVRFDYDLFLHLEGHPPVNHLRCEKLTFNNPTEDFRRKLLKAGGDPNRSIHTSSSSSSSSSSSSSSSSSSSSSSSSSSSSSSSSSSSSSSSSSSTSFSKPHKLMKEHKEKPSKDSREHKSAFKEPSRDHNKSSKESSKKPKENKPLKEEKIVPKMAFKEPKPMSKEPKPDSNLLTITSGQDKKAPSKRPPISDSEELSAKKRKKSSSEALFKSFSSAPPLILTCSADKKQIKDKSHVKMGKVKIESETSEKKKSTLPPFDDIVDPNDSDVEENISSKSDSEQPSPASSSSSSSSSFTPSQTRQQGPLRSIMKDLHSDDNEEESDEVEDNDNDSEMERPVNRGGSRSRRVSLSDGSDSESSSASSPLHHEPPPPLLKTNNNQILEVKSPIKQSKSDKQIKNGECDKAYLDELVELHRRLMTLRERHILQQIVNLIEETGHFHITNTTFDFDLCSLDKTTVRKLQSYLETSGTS

These compounds were tested against Protein AF-9 (Homo sapiens) (UniProt P42568) (assay: inhibitors of AF4 peptide binding to AF9, primary screen, biochemical, AlphaScreen, biotin-AF4 peptide, FLAG-AF9, single point (AID 651704;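 further: 0% = plate neutral control median and 100% = total signal loss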)). Conditions: at 10 µM, active compounds read high.

SMILES | inhibition
CN1CCC(Nc2ccc(Cl)cc2)CC1 | inactive: 1.83%
COc1cccc(C(=O)N(c2cc(C)cc(C)c2)C2CCN(C(=O)OC(C)(C)C)CC2)c1 | inactive: 1.06%
COc1cccc(C(c2nnnn2C2CCCC2)N2CCC(n3c(=O)[nH]c4ccccc43)CC2)c1OC (stereo unspecified) | inactive: 5.11%
COc1cc(OC)cc(C(=O)NCC2(N3CCOCC3)CCCCC2)c1 | inactive: -0.996%
CC(C)(C)OC(=O)N1CCC(Nc2ccccc2)CC1 | inactive: 0.845%
NN(c1ccccc1)C1CCN(CCc2ccccc2)CC1 | inactive: 11.9%
O=C(O)C1(Nc2ccccc2)CCN(Cc2ccccc2)CC1 | inactive: 3.87%
O=c1[nH]c2ccccc2n1C1CCN(C(c2cc3ccccc3o2)c2nnnn2C2CCCC2)CC1 (stereo unspecified) | inactive: 3.21%
CCCOc1ccc(C(=O)NCC2(N(C)C)CCCCC2)cc1 | inactive: 0.612%
CN1CCC(Nc2ccc(F)c(Cl)c2)CC1 | inactive: 0.241%
O=C(NCC1(N2CCCCC2)CCCCC1)c1ccco1 | inactive: -0.771%
CN(C)c1ccc(C(=O)NCC2(N3CCCCC3)CCCCC2)cc1 | inactive: 2.4%
Cn1c(=O)[nH]cc(N(CCCl)CCCl)c1=O | inactive: 2.55%
Cc1ccccc1NC1(C#N)CCN(Cc2ccccc2)CC1 | inactive: 1.71%
COc1ccc(C(c2nnnn2C2CCCCC2)N2CCC(n3c(=O)[nH]c4ccccc43)CC2)cc1 (stereo unspecified) | inactive: 5.7%
CC(C)(C)n1nnnc1C(c1ccnc2ccccc12)N1CCC(n2c(=O)[nH]c3ccccc32)CC1 (stereo unspecified) | inactive: -28.5%
Cc1ccc(C(=O)NCC2(N3CCCCC3)CCCCC2)o1 | inactive: -1.51%
Fc1ccccc1NC1CCN(Cc2ccccc2)CC1 | inactive: 3.34%
Cc1ccc(NC2(C#N)CCN(Cc3ccccc3)CC2)cc1 | inactive: -2.4%
COc1cccc(C(c2nnnn2C2CCCCC2)N2CCC(n3c(=O)[nH]c4ccccc43)CC2)c1OC (stereo unspecified) | inactive: -1.39%
CC(=O)N(c1ccccc1)C1CCNCC1 | inactive: -1.79%
COc1cc(OC)cc(C(=O)NCC2(N3CCCCC3)CCCCC2)c1 | inactive: 2.56%
O=c1[nH]c2ccccc2n1C1CCN(C(c2ccnc3ccccc23)c2nnnn2C2CCCCC2)CC1 (stereo unspecified) | inactive: -0.815%
CC(C)(C)n1nnnc1C(c1cccc2ccccc12)N1CCC(n2c(=O)[nH]c3ccccc32)CC1 (stereo unspecified) | inactive: 1.28%

SMILES | inhibition
CN(C)C1(CNC(=O)c2cccc(C#N)c2)CCCCC1 | inactive: -0.285%
C/C(N)=N\P(=O)(Oc1ccccc1)Oc1ccccc1 | inactive: 4.82%
Cc1cc(N(CCCl)CCCl)ccc1C=O | inactive: -2.79%
CCCN1CCC(Nc2cc(OC)cc(OC)c2)CC1 | inactive: 15.1%
O=c1[nH]c2ccccc2n1C1CCN(C(c2ccccc2)c2nnnn2C2CCCC2)CC1 (stereo unspecified) | inactive: 2.05%
N#Cc1ccc(C(=O)NCC2(N3CCCCC3)CCCCC2)cc1 | inactive: -1.39%
CC(C)(C)OC(=O)N1CCC(N(C(=O)c2ccccc2)c2ccc(Cl)cc2)CC1 | inactive: 2.54%
O=c1[nH]c2ccccc2n1C1CCN(C(c2cccs2)c2nnnn2C2CCCC2)CC1 (stereo unspecified) | inactive: -0.419%
CCCCn1nnnc1C(c1cccc(OC)c1OC)N1CCC(n2c(=O)[nH]c3ccccc32)CC1 (stereo unspecified) | inactive: 2.37%
CCOC(=O)N1CCC(Nc2ccc(C)cc2)CC1 | inactive: 1.16%
COc1cccc(C(c2nnnn2C(C)(C)C)N2CCC(n3c(=O)[nH]c4ccccc43)CC2)c1OC (stereo unspecified) | inactive: 4.13%
O=c1[nH]c2ccccc2n1C1CCN(C(c2cccs2)c2nnnn2C2CCCCC2)CC1 (stereo unspecified) | inactive: 1.96%
COc1ccc(C(=O)NCC2(N3CCOCC3)CCCCC2)cc1OC | inactive: -0.398%
O=c1[nH]c2ccccc2n1C1CCN(C(c2ccnc3ccccc23)c2nnnn2C2CCCC2)CC1 (stereo unspecified) | inactive: -0.566%
CCCCn1nnnc1C(c1ccccc1)N1CCC(n2c(=O)[nH]c3ccccc32)CC1 (stereo unspecified) | inactive: 4.23%
COc1cc(C(=O)NCC2(N3CCOCC3)CCCCC2)cc(OC)c1C | inactive: 1.39%
O=C(NCC1(N2CCOCC2)CCCCC1)c1cc(Br)ccc1Cl | inactive: 2.9%
COc1ccc(C(c2nnnn2C2CCCC2)N2CCC(n3c(=O)[nH]c4ccccc43)CC2)cc1 (stereo unspecified) | inactive: 0.316%
Cc1ccc(C(=O)NCC2(N(C)C)CCCCC2)o1 | inactive: -2.4%
CCCOc1ccc(C(=O)NCC2(N(C)C)CCCCC2)cc1OC | inactive: -12.3%
CN1CCC(Nc2cccc(F)c2)CC1 | inactive: 1.58%
O=C(NCC1(N2CCCCC2)CCCCC1)c1cncc(Br)c1 | inactive: 3.49%
COc1cc(OC)c(C(=O)NCC2(N(C)C)CCCCC2)cc1OC | inactive: 0.571%
CCC(c1nnnn1C(C)(C)C)N1CCC(n2c(=O)[nH]c3ccccc32)CC1 (stereo unspecified) | inactive: 3.46%

SMILES | inhibition
O=C(NCC1(N2CCOCC2)CCCCC1)c1cc(F)c(F)cc1Cl | inactive: -1.04%
CCCCn1nnnc1C(c1ccnc2ccccc12)N1CCC(n2c(=O)[nH]c3ccccc32)CC1 (stereo unspecified) | inactive: -0.313%
CC(C)c1ccc(NC2CCN(C(=O)OC(C)(C)C)CC2)cc1 | inactive: 5.93%
COc1ccc(CN(CCCl)CCCl)cc1Cl | inactive: 4.09%
CN(C)c1cccc(C(=O)NCC2(N3CCCCC3)CCCCC2)c1 | inactive: 12.8%
COc1cc(C(=O)NCC2(N3CCCCC3)CCCCC2)ccc1OC(F)F | inactive: -2.08%
CC(C)c1ccc(C(=O)NCC2(N3CCOCC3)CCCCC2)cc1 | inactive: 0.439%
COc1ccc(NC2CCN(C(=O)OC(C)(C)C)CC2)cc1 | inactive: -3.78%
CN1CCN(CCOC(=O)C(O)(c2ccccc2)c2ccccc2)CC1 | inactive: 1.76%
CCCCn1nnnc1C(c1cccc2ccccc12)N1CCC(n2c(=O)[nH]c3ccccc32)CC1 (stereo unspecified) | inactive: -14.8%
O=C(NCC1(N2CCCCC2)CCCCC1)c1cccc(C(F)(F)F)c1 | inactive: 6.73%
CCN1CCC(Nc2ccc(Cl)cc2)CC1 | inactive: -0.132%
O=c1[nH]c2ccccc2n1C1CCN(C(c2ccccc2OC(F)(F)F)c2nnnn2C2CCCC2)CC1 (stereo unspecified) | inactive: -5.12%
CSc1ccc(C(=O)NCC2(N3CCOCC3)CCCCC2)cc1 | inactive: 5.49%
O=C(NCC1(N2CCCCC2)CCCCC1)c1cccc([N+](=O)[O-])c1 | inactive: -0.288%
CC(C)(C)n1nnnc1C(c1ccccc1OC(F)(F)F)N1CCC(n2c(=O)[nH]c3ccccc32)CC1 (stereo unspecified) | inactive: -2.17%
O=C(NCC1(N2CCCCC2)CCCCC1)c1ccc(OC(F)F)cc1 | inactive: 3.23%
CCOC(=O)N1CCC(Nc2cccc(C)c2)CC1 | inactive: 3.88%
COc1cc(C(=O)NCC2(N(C)C)CCCCC2)ccc1OC(F)F | inactive: 0.142%
O=c1[nH]c2ccccc2n1C1CCN(C(c2cccc3ccccc23)c2nnnn2C2CCCC2)CC1 (stereo unspecified) | inactive: 9.87%
O=c1[nH]c2ccccc2n1C1CCN(C(c2ccccc2)c2nnnn2C2CCCCC2)CC1 (stereo unspecified) | inactive: -10.6%
CCCCOc1ccc(C(=O)NCC2(N3CCOCC3)CCCCC2)cc1 | inactive: -13.6%
O=P1(N(CCCl)CCCl)SCCCS1 | inactive: -3.65%
CCCCn1nnnc1C(c1cc2ccccc2o1)N1CCC(n2c(=O)[nH]c3ccccc32)CC1 (stereo unspecified) | inactive: -0.236%

SMILES | inhibition
O=C(NCC1(N2CCCCC2)CCCCC1)c1ccc(F)cc1 | inactive: 1.73%
CCOC(=O)N1CCC(Nc2ccc(F)cc2)CC1 | inactive: -1.43%
CC(C)(C)n1nnnc1C(c1ccccc1)N1CCC(n2c(=O)[nH]c3ccccc32)CC1 (stereo unspecified) | inactive: 0.912%
O=C1CCN(Cc2ccccc2)CC1 | inactive: 2.53%
CCOc1ccc(C)cc1CN(CCCl)CCCl | inactive: 4.2%
O=C(NCC1(N2CCCCC2)CCCCC1)c1ccc(Cl)s1 | inactive: 2.62%
O=c1[nH]c2ccccc2n1C1CCN(C(c2cc3ccccc3o2)c2nnnn2C2CCCCC2)CC1 (stereo unspecified) | inactive: 2.91%
O=C(OC1CN2CCC1CC2)C1c2ccccc2Oc2ccccc21 (stereo unspecified) | inactive: 6.21%
COc1ccc(Cl)cc1C(=O)NCC1(N2CCOCC2)CCCCC1 | inactive: -21.2%
CCOC(=O)N1CCC(Nc2ccc(OC)cc2)CC1 | inactive: 7.31%
CCCCn1nnnc1C(c1ccc(OC)cc1)N1CCC(n2c(=O)[nH]c3ccccc32)CC1 (stereo unspecified) | inactive: -0.511%
O=C(NCC1(N2CCCCC2)CCCCC1)c1ccc(Cl)nc1 | inactive: 1.79%
O=c1[nH]c2ccccc2n1C1CCN(C(c2ccccc2OC(F)(F)F)c2nnnn2C2CCCCC2)CC1 (stereo unspecified) | inactive: -3.5%
Cc1cc(C)cc(N(C(=O)c2ccccc2)C2CCN(C(=O)OC(C)(C)C)CC2)c1 | inactive: 4.54%
CSc1ccccc1C(=O)NCC1(N2CCCCC2)CCCCC1 | inactive: 4.05%
Cc1cccc(NC2(C#N)CCN(Cc3ccccc3)CC2)c1 | inactive: -2.08%
COc1ccc(C(=O)NCC2(N3CCCCC3)CCCCC2)cc1 | inactive: 2.23%
CC(C)(C)OC(=O)N1CCC(N(C(=O)c2ccccc2)c2ccc(F)cc2)CC1 | inactive: -8.04%
COc1ccc(C(=O)NCC2(N3CCCCC3)CCCCC2)c(OC)c1OC | inactive: 2.59%
CCC(c1nnnn1C1CCCC1)N1CCC(n2c(=O)[nH]c3ccccc32)CC1 (stereo unspecified) | inactive: 6.75%
O=C(NCC1(N2CCCCC2)CCCCC1)c1ccc(=O)[nH]c1 | inactive: -0.184%
O=C(NCC1(N2CCCCC2)CCCCC1)c1cccs1 | inactive: 3.37%
CCCCn1nnnc1C(CC)N1CCC(n2c(=O)[nH]c3ccccc32)CC1 (stereo unspecified) | inactive: -0.88%
CCCCn1nnnc1C(c1cccs1)N1CCC(n2c(=O)[nH]c3ccccc32)CC1 (stereo unspecified) | inactive: 2.18%
